# Biological target: Methyl-CpG-binding domain protein 2 (UniProt Q9UBB5)
# By UniProt entry, the sequences of proteins in these tests, tags left out.
# UniProt Q9UBB5, whole entry: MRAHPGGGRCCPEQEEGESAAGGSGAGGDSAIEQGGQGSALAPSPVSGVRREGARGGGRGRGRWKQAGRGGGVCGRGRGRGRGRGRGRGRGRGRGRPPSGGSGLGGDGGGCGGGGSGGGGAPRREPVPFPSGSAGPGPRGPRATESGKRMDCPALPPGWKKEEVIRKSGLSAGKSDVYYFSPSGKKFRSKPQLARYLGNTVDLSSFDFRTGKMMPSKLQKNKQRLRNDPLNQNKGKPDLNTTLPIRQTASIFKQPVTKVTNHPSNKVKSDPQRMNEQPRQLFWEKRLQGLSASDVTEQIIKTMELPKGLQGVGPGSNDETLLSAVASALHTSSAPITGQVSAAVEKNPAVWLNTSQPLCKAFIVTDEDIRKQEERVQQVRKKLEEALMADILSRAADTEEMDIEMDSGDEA
# Assay: cross-link between two proteins; affinity purification or IP with mass spectrometry; cross-linking mass spectrometry
substance,measurement,value
"Histone deacetylase 2, Q92769",listed as a hit,yes

# Reference: paper doi:10.1101/2025.02.07.636106
